Our source for the synergistic doses values is article PMC10832398 (Molecular cancer therapeutics, 2023).

For the experiment, the system named is HS01 cells. The experiment can be described thus: Combination matrix cell viability assay. Type of experiment: cell-based, human. The following applies: omipalisib/dasatinib matrix, Fig. 1A (HS01, HS02).

Consider `Cc1nc(Nc2ncc(C(=O)Nc3c(C)cccc3Cl)s2)cc(N2CCN(CCO)CC2)n1` [Dasatinib, dasatinib], for which the synergistic doses lay in the range of 156 to 625 nM.
